Measured values from PubChem BioAssay AID624304 (Sanford-Burnham Center for Chemical Genomics, 2012).
The entries are a selection whose mix differs from that of the whole data set. Some salts and complexes are drawn in separate pieces, as the source files them; their charges need not balance. Activity calls are given as the source filed them.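 The calls were made as follows: active = interference check ratio from 0.5 to 1.5 plus GFP to RFP signal ratio inhibition reaching or exceeding a fixed threshold (cut at about 30% in these data, passing the limit was not always enough); inactive = the rest.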

experiment: suppressors of acrylamide-induced Pgst-4::GFP reporter in worms, primary screen, SKN-1 inhibitor project, whole organism, uHTS, GFP/RFP fluorescence ratio, strain VP596 (AID 624304); conditions: C. elegans VP596 Pgst-4::GFP/RFP ratio, 24 h, at 21.8 µM, stronger effect = higher value

SMILES	inhibition
CCOC(=O)c1ccc(NP(C)(=O)Oc2ccc(Cl)cc2)cc1 (centres undefined)	inactive: 3%
CP(=O)(OC12CC3CC(CC(C3)C1)C2)OC12CC3CC(CC(C3)C1)C2	inactive: -5.66%
O=C(OCCCN1CCCC1)C(O)(c1ccccc1)C1CCCCC1 (centres undefined)	inactive: -0.0877%
COc1ccccc1OP(C)(=O)Nc1c(C)n(C)n(-c2ccccc2)c1=O (centres undefined)	inactive: 7.75%
CCc1ccc(OP(C)(=O)Nc2cccnc2)cc1 (centres undefined)	inactive: 7.47%
CP(=O)(Oc1ccccc1)N1CCOC1=O (centres undefined)	inactive: 31.7%
COc1ccc(OP(C)(=O)Nc2ccc(Br)cc2)cc1 (centres undefined)	inactive: 1.42%
CCN(CC)CC(O)COC(=O)C(O)(c1ccccc1)C1CCCCC1 (centres undefined)	inactive: -0.563%
CN(C)C(=O)c1c([N+](=O)[O-])cc([N+](=O)[O-])cc1[N+](=O)[O-]	inactive: 20.6%
COc1ccccc1OP(C)(=O)Nc1ccccc1Br (centres undefined)	inactive: -5.12%
CC(C)(C)c1ccc(OP(C)(=O)O)cc1	inactive: 28%
CP(=O)(Nc1ccc(Cl)cc1)Oc1ccc(F)cc1 (centres undefined)	inactive: 2.77%
COc1ccc(OP(C)(=O)Nc2ccccn2)cc1 (centres undefined)	inactive: 4.79%
CN(C)CCOC(=O)C(O)(c1ccccc1)C1CCCC1 (centres undefined)	inactive: 17.9%
COc1ccccc1OP(C)(=O)Nc1ccc(Br)cc1 (centres undefined)	inactive: 6.86%
COc1ccccc1OP(C)(=O)Nc1ccc(C)cc1C (centres undefined)	inactive: 10.7%
CP(=O)(Nc1ccccn1)Oc1ccccc1 (centres undefined)	inactive: 10.3%
CCc1ccc(OP(C)(=O)O)cc1	inactive: -10.5%
Cc1c(NP(C)(=O)Oc2ccc(C(C)C)cc2)c(=O)n(-c2ccccc2)n1C (centres undefined)	inactive: -1.94%
O=[N+]([O-])c1cc([N+](=O)[O-])c(Nc2ccccn2)c([N+](=O)[O-])c1	inactive: 5.07%
COc1ccccc1OP(C)(=O)Nc1ccc(C)c(C)c1 (centres undefined)	inactive: 3.14%
COc1ccc(OP(C)(=O)Nc2ccccc2Br)cc1 (centres undefined)	inactive: 3.69%
Cc1cc(C)cc(OP(C)(=O)Nc2cccc(C(F)(F)F)c2)c1 (centres undefined)	inactive: 0.0677%
O=C1C(O)=C([N+](=O)[O-])C(=O)C(O)=C1[N+](=O)[O-]	inactive: 1.71%
CP(=O)(Nc1ccc(Cl)cc1Cl)Oc1ccccc1 (centres undefined)	inactive: -0.321%

SMILES	inhibition
CCCCCCCCCCCCCCCC1C[N+](C)(C)CCOP(C)(=O)O1 (centres undefined)	active: 46.6%
CP(=O)(OCCOc1ccccc1)OCCOc1ccccc1	inactive: 1.54%
CCOC(=O)c1ccc(NP(C)(=O)Oc2ccc(F)cc2)cc1 (centres undefined)	inactive: 1.81%
COc1ccc(OP(C)(=O)Nc2ccc(SC(F)(F)F)cc2)cc1 (centres undefined)	inactive: -1.07%
CCN(CC)CCCNc1ccccc1[N+](=O)[O-].O=[N+]([O-])c1cc([N+](=O)[O-])c(O)c([N+](=O)[O-])c1	inactive: 13%
CP(=O)(Nc1ccccc1)Oc1ccc(F)cc1 (centres undefined)	inactive: 6.92%
O=[N+]([O-])c1cc([N+](=O)[O-])c(OC2CCCCC2O)c([N+](=O)[O-])c1 (centres undefined)	inactive: 10.7%
CCCCCOc1ccc(NP(C)(=O)Oc2ccc(Cl)cc2Cl)cc1 (centres undefined)	inactive: 12.9%
Cc1c([N+](=O)[O-])cc([N+](=O)[O-])c(Br)c1[N+](=O)[O-]	inactive: 1.18%
CCN(CC)CCCOC(=O)C(O)(c1ccccc1)C1CCCCC1 (centres undefined)	inactive: 20.5%
CP(=O)(Nc1ccccc1F)Oc1ccccc1 (centres undefined)	inactive: 6.57%
CC(C)c1ccc(OP(C)(=O)Nc2ccc(SC(F)(F)F)cc2)cc1 (centres undefined)	inactive: -0.38%
O=[N+]([O-])c1cc([N+](=O)[O-])c(Nc2ccc(Cl)cc2)c([N+](=O)[O-])c1	inactive: 2.06%
COc1ccc2c(c1O)-c1c(O)c(OC)cc3c1[C@H](C2)[N+](C)(C)CC3.O=[N+]([O-])c1cc([N+](=O)[O-])c([O-])c([N+](=O)[O-])c1[O-]	inactive: -1.42%
O=C(OC1CN2CCC1CC2)c1ccc([N+](=O)[O-])cc1 (centres undefined)	inactive: 8.09%
O=C(OCCN1CCN(CCOCc2ccccc2)CC1)C(O)(c1ccccc1)c1ccccc1	inactive: 5.82%
CCOP(C)(=S)SCC(=O)NC(C)(CC)C(=O)O (centres undefined)	inactive: -6.99%
CP(=O)(Nc1ccc(SC(F)(F)F)cc1)Oc1ccc(F)cc1 (centres undefined)	inactive: 12.2%
Cc1ccccc1NP(C)(=O)Nc1ccccc1C	inactive: 14.4%
O=[N+]([O-])c1cc([N+](=O)[O-])c(C(F)(F)F)c([N+](=O)[O-])c1O	inactive: 6.42%
CP(=O)(Nc1ccc2c(c1)OCCO2)Oc1ccccc1 (centres undefined)	inactive: 6.17%
CN(C)CCOC(=O)C(O)(c1ccccc1)C1CCCCC1 (centres undefined)	inactive: -4.58%
COc1ccc(NP(C)(=O)Oc2ccccc2OC)cc1 (centres undefined)	inactive: 4.72%
COc1ccc(OP(C)(=O)Nc2cccc(Br)c2)cc1 (centres undefined)	inactive: -2.84%
